Cyclic peptide permeability, from CycPeptMPDB

Values of Townsend et al. 2020, doi:10.26434/chemrxiv.13335941.v1, as listed in CycPeptMPDB.

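The data file gives no further conditions (lipid, pH, time, direction or concentration), and values from different papers need not be comparable. The list need not hold all peptides of the study. Peptides that the database sets to -10, its floor, are left out.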

PAMPA measures passive passage through an artificial lipid membrane. Permeability is given as log10 of P in cm/s; higher (less negative) is more permeable.

SMILES	PAMPA (log10 cm/s)
CC(C)C[C@@H]1C(=O)N(C)[C@@H](CC(C)C)C(=O)N2CCC[C@H]2C(=O)N(C)[C@H](CC(C)C)C(=O)N[C@@H](Cc2ccccc2)C(=O)N[C@@H](Cc2ccccc2)CC(=O)N1C	-5.25
CCCN1CC(=O)N[C@@H](CC(C)C)C(=O)N(C)[C@@H](CC(C)C)C(=O)N2CCC[C@@H]2C(=O)N(C)[C@@H](CC(C)C)C(=O)N[C@@H](Cc2ccccc2)C(=O)N2CCC[C@H]2C1=O	-5.09
CC(C)C[C@@H]1NC(=O)[C@H]2CCCN2C(=O)[C@H](CC(C)C)N(C)C(=O)CN(Cc2ccccc2)C(=O)[C@H](C)N(C)C(=O)[C@H]2CCCN2C(=O)[C@H](Cc2ccccc2)NC1=O	-5.27
CC(C)C[C@H]1NC(=O)[C@H](C)N(C)C(=O)[C@@H]2CCCN2C(=O)[C@H](Cc2ccccc2)NC(=O)[C@H](CC(C)C)N(C)C(=O)[C@@H]2CCCN2C(=O)CN(Cc2ccccc2)C1=O	-6.09
CCCN1CC(=O)N(C)[C@H](CC(C)C)C(=O)N(Cc2ccccc2)CC(=O)N2CCC[C@@H]2C(=O)N[C@@H](CC(C)C)C(=O)N[C@@H](Cc2ccccc2)C(=O)N2CCC[C@H]2C1=O	-7.05
CC(C)C[C@@H]1NC(=O)[C@H](CC(C)C)N(C)C(=O)C[C@H](Cc2ccccc2)NC(=O)[C@@H]2CCCN2C(=O)[C@H](Cc2ccccc2)NC(=O)[C@@H](CC(C)C)N(C)C(=O)[C@H]2CCCN2C1=O	-5.56
CC(C)C[C@@H]1C(=O)N[C@@H](Cc2ccccc2)C(=O)N[C@@H](C)C(=O)N(C)[C@@H](CC(C)C)C(=O)N(Cc2ccccc2)CC(=O)N2CCC[C@H]2C(=O)N1C	-5.20
CC(C)C[C@@H]1NC(=O)[C@@H](C)NC(=O)[C@H](Cc2ccccc2)NC(=O)[C@@H](CC(C)C)N(C)C(=O)[C@@H]2CCCN2C(=O)[C@H](CC(C)C)N(C)C1=O	-6.47
CC(C)C[C@@H]1NC(=O)[C@H](C)NC(=O)[C@H](Cc2ccccc2)NC(=O)[C@@H](CC(C)C)NC(=O)[C@@H]2CCCN2C(=O)[C@H](CC(C)C)NC1=O	-6.62
CCCN1CC(=O)N[C@H](CC(C)C)C(=O)N(Cc2ccccc2)CC(=O)N2CCC[C@@H]2C(=O)N[C@H](CC(C)C)C(=O)N[C@@H](Cc2ccccc2)C(=O)N2CCC[C@H]2C1=O	-5.88
CC(C)C[C@H]1NC(=O)C[C@H](Cc2ccccc2)NC(=O)[C@H]2CCCN2C(=O)[C@H](Cc2ccccc2)NC(=O)[C@H](CC(C)C)N(C)C(=O)[C@@H]2CCCN2C(=O)CN(Cc2ccccc2)C1=O	-5.53
CC(C)C[C@@H]1C(=O)N2CCC[C@H]2C(=O)N(C)[C@H](CC(C)C)C(=O)N[C@@H](Cc2ccccc2)C(=O)N[C@H](C)C(=O)N[C@H](CC(C)C)C(=O)N1C	-6.37
CC(C)C[C@@H]1C(=O)N2CCC[C@H]2C(=O)N(C)[C@H](CC(C)C)C(=O)N[C@@H](Cc2ccccc2)C(=O)N2CCC[C@@H]2C(=O)N(C)[C@H](C)C(=O)N[C@H](CC(C)C)C(=O)N1C	-5.05
CC(C)C[C@@H]1NC(=O)[C@H](C)NC(=O)[C@@H]2CCCN2C(=O)[C@H](Cc2ccccc2)NC(=O)CN(Cc2ccccc2)C(=O)[C@H]2CCCN2C(=O)CN(Cc2ccccc2)C1=O	-6.94
CCCN1CC(=O)N(C)[C@H](CC(C)C)C(=O)N(C)[C@H](CC(C)C)C(=O)N2CCC[C@H]2C(=O)N[C@H](CC(C)C)C(=O)N[C@@H](Cc2ccccc2)C(=O)N2CCC[C@H]2C1=O	-5.59
CC(C)C[C@H]1NC(=O)[C@@H](C)NC(=O)[C@H]2CCCN2C(=O)[C@H](Cc2ccccc2)NC(=O)[C@H](CC(C)C)N(C)C(=O)[C@@H]2CCCN2C(=O)[C@H](CC(C)C)N(C)C1=O	-5.78
CC(C)C[C@@H]1C(=O)N[C@H](CC(C)C)C(=O)N2CCC[C@@H]2C(=O)N[C@H](CC(C)C)C(=O)N[C@@H](Cc2ccccc2)C(=O)N2CCC[C@@H]2C(=O)N(C)[C@@H](C)C(=O)N1C	-5.66

Again, the 2 entries with the lowest PAMPA:

SMILES	PAMPA (log10 cm/s)
CCCN1CC(=O)N(C)[C@H](CC(C)C)C(=O)N(Cc2ccccc2)CC(=O)N2CCC[C@@H]2C(=O)N[C@@H](CC(C)C)C(=O)N[C@@H](Cc2ccccc2)C(=O)N2CCC[C@H]2C1=O	-7.05
CC(C)C[C@@H]1NC(=O)[C@H](C)NC(=O)[C@@H]2CCCN2C(=O)[C@H](Cc2ccccc2)NC(=O)CN(Cc2ccccc2)C(=O)[C@H]2CCCN2C(=O)CN(Cc2ccccc2)C1=O	-6.94